Our source for the Kd values is article PMC11347169.

Protein sequences, listed by entry. Tags and fused reporters are not part of them. Lines headed by an entry give the natural chain unless they say otherwise; changes in a name come on top.
UniProt P28340: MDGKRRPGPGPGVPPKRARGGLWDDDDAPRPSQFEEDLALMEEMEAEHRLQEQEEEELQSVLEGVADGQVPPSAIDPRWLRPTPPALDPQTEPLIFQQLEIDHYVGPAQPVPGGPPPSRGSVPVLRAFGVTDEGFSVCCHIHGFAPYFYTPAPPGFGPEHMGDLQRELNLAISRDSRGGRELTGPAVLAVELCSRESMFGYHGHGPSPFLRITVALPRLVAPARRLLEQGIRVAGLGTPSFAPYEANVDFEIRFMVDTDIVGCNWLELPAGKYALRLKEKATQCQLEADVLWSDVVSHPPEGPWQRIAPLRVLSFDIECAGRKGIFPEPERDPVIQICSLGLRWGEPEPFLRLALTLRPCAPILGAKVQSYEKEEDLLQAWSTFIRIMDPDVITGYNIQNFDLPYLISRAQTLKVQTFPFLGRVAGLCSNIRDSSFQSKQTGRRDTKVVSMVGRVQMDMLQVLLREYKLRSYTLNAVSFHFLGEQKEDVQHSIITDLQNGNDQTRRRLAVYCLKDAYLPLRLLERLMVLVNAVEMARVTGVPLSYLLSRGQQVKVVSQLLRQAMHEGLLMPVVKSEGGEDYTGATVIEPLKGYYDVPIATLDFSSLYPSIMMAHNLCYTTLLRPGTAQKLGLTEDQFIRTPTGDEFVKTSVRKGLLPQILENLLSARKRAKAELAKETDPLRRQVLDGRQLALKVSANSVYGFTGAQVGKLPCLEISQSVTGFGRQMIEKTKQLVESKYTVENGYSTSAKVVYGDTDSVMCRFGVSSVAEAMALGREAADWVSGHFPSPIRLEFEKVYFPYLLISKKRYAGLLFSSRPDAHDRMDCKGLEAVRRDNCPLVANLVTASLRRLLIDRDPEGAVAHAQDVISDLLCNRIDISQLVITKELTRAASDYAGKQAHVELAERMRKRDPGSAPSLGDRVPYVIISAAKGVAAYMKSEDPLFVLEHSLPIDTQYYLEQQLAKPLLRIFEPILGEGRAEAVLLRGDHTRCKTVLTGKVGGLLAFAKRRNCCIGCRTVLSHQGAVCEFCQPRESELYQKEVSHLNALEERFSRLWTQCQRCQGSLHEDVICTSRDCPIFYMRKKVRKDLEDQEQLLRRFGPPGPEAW

This test concerns the target Pol δ polymerase-and-exonuclease-deficient mutant (Pol δ polymerase-deficient mutant) (Homo sapiens) (UniProt P28340). As to the kind of experiment: MST. Conditions: enzyme.

Usually Kd stands for the equilibrium constant for the complex coming apart. Higher therefore signals weaker binding. Regarding “Simian virus 40 large T antigen (L-Tag) (from UniProt P03070 1-708)”, the Kd amounted to 1.1 nM.
